This series deals with T1, MDR1-transfected MDCK cells (Homo sapiens, UniProt P08183).
T1 construct: host or cells: MDCK cells
Description: Bidirectional transport in MDR1-transfected MDCK cell monolayers. It counts as in vitro ADME.

The chains behind the UniProt entries cited, without tags or fusion partners.
UniProt P08183, whole entry: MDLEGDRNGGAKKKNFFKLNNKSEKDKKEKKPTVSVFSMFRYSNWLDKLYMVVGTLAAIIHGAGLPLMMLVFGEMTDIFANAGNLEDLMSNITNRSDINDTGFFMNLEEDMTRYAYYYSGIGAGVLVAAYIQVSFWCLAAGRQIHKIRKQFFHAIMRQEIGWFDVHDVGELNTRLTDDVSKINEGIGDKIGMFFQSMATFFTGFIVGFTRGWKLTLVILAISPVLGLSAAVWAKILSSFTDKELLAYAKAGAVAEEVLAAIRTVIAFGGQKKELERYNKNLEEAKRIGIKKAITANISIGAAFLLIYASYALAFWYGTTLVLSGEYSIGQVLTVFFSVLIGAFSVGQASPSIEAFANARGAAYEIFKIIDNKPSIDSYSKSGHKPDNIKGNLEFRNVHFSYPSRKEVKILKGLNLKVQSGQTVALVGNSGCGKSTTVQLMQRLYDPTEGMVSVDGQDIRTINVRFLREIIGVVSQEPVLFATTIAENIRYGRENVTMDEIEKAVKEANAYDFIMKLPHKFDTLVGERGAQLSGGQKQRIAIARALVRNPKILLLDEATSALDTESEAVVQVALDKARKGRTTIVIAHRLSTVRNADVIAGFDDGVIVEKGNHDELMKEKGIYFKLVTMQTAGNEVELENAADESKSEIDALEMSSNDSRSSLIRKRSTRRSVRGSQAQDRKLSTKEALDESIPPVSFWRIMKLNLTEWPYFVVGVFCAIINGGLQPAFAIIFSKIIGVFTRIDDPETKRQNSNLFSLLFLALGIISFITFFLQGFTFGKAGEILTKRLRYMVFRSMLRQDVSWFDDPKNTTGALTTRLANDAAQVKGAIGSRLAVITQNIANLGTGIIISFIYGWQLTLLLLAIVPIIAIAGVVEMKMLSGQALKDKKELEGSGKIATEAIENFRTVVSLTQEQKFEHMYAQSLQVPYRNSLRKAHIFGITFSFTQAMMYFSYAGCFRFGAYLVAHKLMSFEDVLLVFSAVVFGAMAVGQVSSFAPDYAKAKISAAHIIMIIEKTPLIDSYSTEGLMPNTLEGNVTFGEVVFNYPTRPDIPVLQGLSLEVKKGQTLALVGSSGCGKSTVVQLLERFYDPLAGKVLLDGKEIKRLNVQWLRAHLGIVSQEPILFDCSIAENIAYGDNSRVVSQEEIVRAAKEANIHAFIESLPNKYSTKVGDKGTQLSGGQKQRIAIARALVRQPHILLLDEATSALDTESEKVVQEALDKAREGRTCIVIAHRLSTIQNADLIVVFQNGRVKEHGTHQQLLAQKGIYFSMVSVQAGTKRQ

Here are results for one compound from PMC12523303, “Multi-Fused S,N-Heterocyclic Compounds for Targeting α-Synuclein Aggregates” (Cells, 2025).

In the case of `C[C@H]1O[C@@H](O[C@H]2[C@@H](O)C[C@H](O[C@H]3[C@@H](O)C[C@H](O[C@H]4CC[C@@]5(C)[C@H](CC[C@@H]6[C@@H]5C[C@@H](O)[C@]5(C)[C@@H](C7=CC(=O)OC7)CC[C@]65O)C4)O[C@@H]3C)O[C@@H]2C)C[C@H](O)[C@@H]1O` [Digoxin], where the note is “MDR1-MDCK”, the “Efflux Ratio (B→A/A→B)” value is given as 14.5. Moreover, the B→A apparent permeability (basolateral-to-apical, 2 μM) was 24 ×10⁻⁶ cm/s.
